Measured values reported in patent publication US20150080462A1, “COMPOSITIONS AND METHODS FOR THE TREATMENT OR PREVENTION OF DISORDERS RELATING TO OXIDATIVE STRESS” (THE JOHNS HOPKINS UNIVERSITY, priority 2005, published 2015).

Assays:
[1] = test system: TNF-α, IL-1β and IL-6; assay: Real time PCR of proinflammatory genes in lungs after non-lethal LPS challenge, NAC pretreatment; type: in vivo; settings: nrf2−/− mice, NAC 500 mg/kg ip three doses, 30 min after LPS ip 60 μg per mouse
[2] = test system: nrf2−/− mice; assay: BAL fluid analysis after non-lethal LPS challenge, NAC pretreatment; type: in vivo; settings: NAC 500 mg/kg ip three doses, 6 h after LPS ip 60 μg per mouse

CC(=O)N[C@@H](CS)C(=O)O [NAC, N-acetyl L-cysteine]
transcript levels of TNF-α, IL-1β and IL-6 in the lungs [1]: significantly reduced | influx of inflammatory cells (BAL fluid) [2]: significantly reduced
